For assay [1], the target named is MBP-His8-REV7(R124A)-FLAG protein (Homo sapiens, UniProt Q9UI95, R124A). Description: WaterLOGSY NMR with MBP-REV7. The following applies: compound 200 μM, protein 10 μM, 298K. It counts as binding.
The target of assay [2] is MBP-His8-REV7(R124A)-FLAG (UniProt Q9UI95 1-211, R124A). In words: fluorescence polarisation. Background: In fluorescence polarisation assays a small probe gives low polarisation when free and higher when bound to something large.

One may read the IC50 as the concentration needed to halve the response being measured.

Ends that are not written are not given here.

As for `CC(=O)N1CCC(Cn2cnc3scc(-c4ccc(C)o4)c3c2=O)CC1` [compound 7], the “Direct binding to REV7(R124A) by WaterLOGSY NMR” value in assay [1] was “directly binds”.
Take ANILKPLMSPPSREEIMATLL-{TAMRA} [C-terminal TAMRA-tagged REV3L(1875–1895) peptide]: the binding result in assay [2] is “binds”.
In the case of ANILKPLMSPPSREEIMATLL [non-tagged REV3L(1875–1895) peptide], inhibition in assay [2] was half-maximal at 0.3 µM (IC50). This counts as sub-micromolar.

Values taken from publication PMC5688848 (Bioorganic & medicinal chemistry, 2016).
